± gives the expanded uncertainty stated by the source.
CCCCOCCCC [dibutyl ether]
Conditions | speed of sound, Rayleigh light scatter [m/s] | thermal diffusivity, Rayleigh light scattering [m2/s]
303.15 K, Liquid | 1143.5 ± 5.7 | 7.07e-08 ± 2e-09
318.15 K, Liquid | 1085.8 ± 5.5 | 6.81e-08 ± 1.9e-09
333.15 K, Liquid | 1029 ± 5.2 | 6.56e-08 ± 1.8e-09
348.15 K, Liquid | 973.04 ± 4.9 | 6.32e-08 ± 1.8e-09
363.15 K, Liquid | 917.88 ± 4.6 | 6.1e-08 ± 1.7e-09
373.15 K, Liquid | 881.52 ± 4.4 | 5.95e-08 ± 1.7e-09
383.15 K, Liquid | 845.45 ± 4.3 | 5.81e-08 ± 1.7e-09
393.15 K, Liquid | 809.66 ± 4.1 | 5.67e-08 ± 1.6e-09
403.15 K, Liquid | 774.11 ± 3.9 | 5.54e-08 ± 1.6e-09
413.15 K, Liquid | 738.78 ± 3.7 | 5.42e-08 ± 1.6e-09
423.15 K, Liquid | 703.63 ± 3.6 | 5.3e-08 ± 1.5e-09
433.15 K, Liquid | 668.62 ± 3.4 | 5.18e-08 ± 1.5e-09
443.15 K, Liquid | 633.7 ± 3.2 | 5.06e-08 ± 1.5e-09
453.15 K, Gas | 155.84 ± 0.93 | –
453.15 K, Liquid | 598.83 ± 3 | 4.95e-08 ± 1.4e-09
463.15 K, Gas | 155.2 ± 0.92 | –
463.15 K, Liquid | 563.95 ± 2.9 | 4.85e-08 ± 1.4e-09
473.15 K, Gas | 153.97 ± 0.92 | –
473.15 K, Liquid | 528.99 ± 2.7 | 4.74e-08 ± 1.4e-09
483.15 K, Gas | 152.07 ± 0.91 | –
483.15 K, Liquid | 493.86 ± 2.5 | 4.64e-08 ± 1.4e-09
493.15 K, Gas | 149.44 ± 0.9 | –
493.15 K, Liquid | 458.48 ± 2.4 | 4.54e-08 ± 1.3e-09
503.15 K, Gas | 145.99 ± 0.88 | –
503.15 K, Liquid | 422.72 ± 2.2 | 4.45e-08 ± 1.3e-09
508.15 K, Gas | 143.93 ± 0.88 | –
508.15 K, Liquid | 404.65 ± 2.1 | 4.4e-08 ± 1.3e-09
513.15 K, Gas | 141.62 ± 0.87 | –
513.15 K, Liquid | 386.43 ± 2 | 4.35e-08 ± 1.3e-09
518.15 K, Gas | 139.06 ± 0.86 | –
518.15 K, Liquid | 368.04 ± 1.9 | 4.3e-08 ± 1.3e-09
523.15 K, Gas | 136.23 ± 0.85 | –
523.15 K, Liquid | 349.43 ± 1.8 | 4.25e-08 ± 1.3e-09
528.15 K, Gas | 133.13 ± 0.83 | –
528.15 K, Liquid | 330.59 ± 1.7 | 4.19e-08 ± 1.3e-09
533.15 K, Gas | 129.72 ± 0.82 | –
533.15 K, Liquid | 311.47 ± 1.6 | 4.14e-08 ± 1.3e-09
538.15 K, Gas | 126 ± 0.8 | –
538.15 K, Liquid | 292.02 ± 1.6 | 4.08e-08 ± 1.2e-09
543.15 K, Gas | 121.95 ± 0.79 | 1.98e-07 ± 3.9e-07
543.15 K, Liquid | 272.18 ± 1.5 | 4.02e-08 ± 1.2e-09
548.15 K, Gas | 117.54 ± 0.77 | 1.81e-07 ± 3.9e-07
548.15 K, Liquid | 251.88 ± 1.4 | 3.96e-08 ± 1.2e-09
553.15 K, Gas | 112.77 ± 0.75 | 1.63e-07 ± 3.9e-07
553.15 K, Liquid | 231.03 ± 1.3 | 3.89e-08 ± 1.2e-09
558.15 K, Gas | 107.6 ± 0.74 | 1.46e-07 ± 3.9e-07
558.15 K, Liquid | 209.5 ± 1.2 | 3.81e-08 ± 1.2e-09
561.15 K, Gas | 104.29 ± 0.72 | 1.35e-07 ± 3.9e-07
561.15 K, Liquid | 196.2 ± 1.1 | 3.75e-08 ± 1.2e-09
564.15 K, Gas | 100.83 ± 0.71 | 1.24e-07 ± 3.9e-07
564.15 K, Liquid | 182.53 ± 1.1 | 3.69e-08 ± 1.1e-09
567.15 K, Gas | 97.21 ± 0.7 | 1.12e-07 ± 3.9e-07
567.15 K, Liquid | 168.45 ± 1 | 3.62e-08 ± 1.1e-09
570.15 K, Gas | 93.4 ± 0.69 | 1e-07 ± 3.9e-07
570.15 K, Liquid | 153.86 ± 0.94 | 3.54e-08 ± 1.1e-09
573.15 K, Gas | 89.42 ± 0.67 | 8.61e-08 ± 3.9e-07
573.15 K, Liquid | 138.64 ± 0.88 | 3.44e-08 ± 1.1e-09
576.15 K, Gas | 85.25 ± 0.66 | 7e-08 ± 3.9e-07
576.15 K, Liquid | 122.58 ± 0.82 | 3.3e-08 ± 1.1e-09
577.15 K, Gas | 83.81 ± 0.65 | –
579.15 K, Gas | – | 5.02e-08 ± 3.9e-07
579.15 K, Liquid | 105.33 ± 0.77 | 3.1e-08 ± 1e-09
582.15 K, Liquid | 86.01 ± 0.71 | –

Rayleigh light scattering
Conditions | speed of sound, Liquid [m/s] | thermal diffusivity, Fluid (supercritical or subcritical phases) [m2/s]
586.31 K, 6500 kPa | – | 5.63e-08 ± 1.6e-09
586.41 K, 4000 kPa | – | 4.65e-08 ± 1.4e-09
586.44 K, 4500 kPa | 237.17 ± 1.9 | –
586.46 K, 5500 kPa | 276.64 ± 2.6 | 5.46e-08 ± 1.6e-09
586.5 K, 4500 kPa | – | 5.06e-08 ± 1.5e-09
586.51 K, 6500 kPa | 307.09 ± 2.4 | –
586.75 K, 7500 kPa | 332.28 ± 1.9 | 5.73e-08 ± 1.6e-09
586.81 K, 3500 kPa | 184.9 ± 1.9 | 4.16e-08 ± 1.3e-09
586.81 K, 3750 kPa | – | 4.41e-08 ± 1.3e-09
588.4 K, 5500 kPa | – | 5.44e-08 ± 1.6e-09
588.45 K, 7500 kPa | – | 5.73e-08 ± 1.6e-09
588.47 K, 4500 kPa | – | 5.04e-08 ± 1.5e-09
588.49 K, 3500 kPa | – | 3.14e-08 ± 1.4e-09
588.49 K, 3750 kPa | – | 4.09e-08 ± 1.5e-09
588.51 K, 4000 kPa | – | 4.55e-08 ± 1.4e-09
588.55 K, 6500 kPa | – | 5.62e-08 ± 1.6e-09
589.94 K, 3500 kPa | 143.08 ± 2.1 | 2.86e-08 ± 1.4e-09
589.94 K, 3750 kPa | – | 3.86e-08 ± 1.5e-09
589.99 K, 4500 kPa | – | 5.01e-08 ± 1.5e-09
590.01 K, 4000 kPa | – | 4.46e-08 ± 1.4e-09
590.03 K, 4500 kPa | 207.46 ± 2 | –
590.29 K, 5500 kPa | 250.4 ± 2.7 | 5.42e-08 ± 1.6e-09
590.47 K, 6500 kPa | 283.36 ± 2.4 | –
590.59 K, 6500 kPa | – | 5.61e-08 ± 1.6e-09
590.59 K, 7500 kPa | 311.32 ± 2.4 | 5.73e-08 ± 1.6e-09
591.3 K, 5500 kPa | – | 5.41e-08 ± 1.6e-09
591.35 K, 3500 kPa | – | 3.02e-08 ± 1.2e-09
591.35 K, 3750 kPa | – | 3.62e-08 ± 1.4e-09
591.52 K, 7500 kPa | – | 5.73e-08 ± 1.6e-09
591.54 K, 4500 kPa | – | 4.99e-08 ± 1.5e-09
